Consider two compounds from ChEMBL document CHEMBL1148293, “10-Ketomorphinan and 3-substituted-3-desoxymorphinan analogues as mixed kappa and micro opioid ligands: synthesis and biological evaluation of their binding affinity at opioid receptors” (J Med Chem, 2004).

Amino acid sequences for entries named in this document (tags omitted). A change or cut given only in a name is not applied to a line headed by its entry.
UniProt P97266, whole entry: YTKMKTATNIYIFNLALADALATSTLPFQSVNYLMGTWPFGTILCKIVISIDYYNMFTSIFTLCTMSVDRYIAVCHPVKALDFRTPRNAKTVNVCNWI
UniProt P41145: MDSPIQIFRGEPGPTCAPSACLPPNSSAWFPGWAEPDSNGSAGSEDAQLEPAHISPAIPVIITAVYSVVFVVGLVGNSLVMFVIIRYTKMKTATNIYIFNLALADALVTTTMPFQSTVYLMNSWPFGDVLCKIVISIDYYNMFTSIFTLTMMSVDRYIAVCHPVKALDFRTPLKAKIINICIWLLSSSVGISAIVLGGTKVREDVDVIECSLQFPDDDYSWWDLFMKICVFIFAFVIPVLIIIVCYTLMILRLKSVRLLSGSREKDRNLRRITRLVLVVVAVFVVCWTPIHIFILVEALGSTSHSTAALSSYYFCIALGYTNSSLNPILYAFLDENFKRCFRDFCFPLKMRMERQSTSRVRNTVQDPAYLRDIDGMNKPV

Experiment [1] addresses Mu-type opioid receptor (Cavia porcellus, UniProt P97266). The experiment is described as follows: Binding affinity against opioid receptor mu 1 using [3H]DAMGO as radioligand in guinea pig brain membranes. It counts as cell membranes.
Experiment [2] has as its target Opioid receptors; delta & kappa (UniProt P41145+P41143). Nature of the experiment: Selectivity ratio expressed as Ki of delta opioid receptor to that of kappa opioid receptor. It counts as protein assay. To be noted: Cavia porcellus.
Experiment [3] relates to Opioid receptors; mu & delta. Nature of the experiment: Selectivity ratio expressed as Ki of delta opioid receptor to that of mu opioid receptor. In kind it is protein assay. To be noted: Cavia porcellus.

In experiment [1], `NC(=O)c1ccc2c(c1)[C@@]13CCCC[C@H]1[C@@H](C2)N(CC1CCC1)CC3` had an inhibition constant (Ki) of 0.1 nM. Further, the Selectivity in experiment [2] was found to be 46; in experiment [3], 40.
With `Oc1ccc2c(c1)[C@@]13CCCC[C@H]1[C@@H](C2)N(CC1CC1)CC3` [CYCLORPHAN], the Selectivity stood at 56 in experiment [2] and 31 in experiment [3].
